# Patent US11384060B2, “Amide compounds and use thereof” (ALPHALA CO., LTD., priority 2017, dated 2022)
# Amino acid sequences for entries named in this document (tags omitted). Residues count along the entry.
# UniProt P47871, 26-477 limits assumed: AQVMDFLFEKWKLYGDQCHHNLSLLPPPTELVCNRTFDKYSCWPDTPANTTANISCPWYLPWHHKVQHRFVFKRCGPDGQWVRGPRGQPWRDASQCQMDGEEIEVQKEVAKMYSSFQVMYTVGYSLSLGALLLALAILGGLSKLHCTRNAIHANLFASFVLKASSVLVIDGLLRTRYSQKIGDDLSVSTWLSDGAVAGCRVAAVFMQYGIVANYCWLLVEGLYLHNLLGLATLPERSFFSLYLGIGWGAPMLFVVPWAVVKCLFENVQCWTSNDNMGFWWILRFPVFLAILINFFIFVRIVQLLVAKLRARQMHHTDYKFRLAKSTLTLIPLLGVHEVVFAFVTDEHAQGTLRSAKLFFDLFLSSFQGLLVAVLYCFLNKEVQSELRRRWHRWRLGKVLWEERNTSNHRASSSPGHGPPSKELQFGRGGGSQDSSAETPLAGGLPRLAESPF
# How the values were obtained:
# [1] = biological target: glucagon receptor (GCGR) overexpressed CHO-K1 cells or human primary hepatocytes (Homo sapiens, UniProt P47871); assay: Glucagon cAMP inhibition assay (Cisbio cAMP Dynamic 2 HTRF); conditions: read-out: IC50 cAMP
# glucagon receptor (GCGR) = glucagon receptor (GCGR) (Homo sapiens, UniProt P47871); assay: I125-glucagon binding assay (competition, GCGR membrane fractions); conditions: read-out: IC50 binding
smiles,measurement,setting,value
CC(C)(C)c1ccc(-c2ccc(C[C@@H](Nc3ccc(C(=O)NCCC(=O)O)cc3)C(=O)Nc3ccc(C(F)(F)F)cc3)cc2)cc1,IC50,[1],252 nM
same,IC50,glucagon receptor (GCGR),126 nM
